Values joined by “and” are separate entries in the source; they are usually repeats but may differ in a detail not shown here. Equal entries are not always repeated.
Biological target: CAMKII gamma (Homo sapiens, UniProt Q13555)
Test: CAMKII gamma kinase activity, ADP Glo (Promega)

Chains of the proteins cited; added tags and fusions are not shown. Lines headed by an entry give the natural chain unless they say otherwise; changes in a name come on top.
UniProt Q13555: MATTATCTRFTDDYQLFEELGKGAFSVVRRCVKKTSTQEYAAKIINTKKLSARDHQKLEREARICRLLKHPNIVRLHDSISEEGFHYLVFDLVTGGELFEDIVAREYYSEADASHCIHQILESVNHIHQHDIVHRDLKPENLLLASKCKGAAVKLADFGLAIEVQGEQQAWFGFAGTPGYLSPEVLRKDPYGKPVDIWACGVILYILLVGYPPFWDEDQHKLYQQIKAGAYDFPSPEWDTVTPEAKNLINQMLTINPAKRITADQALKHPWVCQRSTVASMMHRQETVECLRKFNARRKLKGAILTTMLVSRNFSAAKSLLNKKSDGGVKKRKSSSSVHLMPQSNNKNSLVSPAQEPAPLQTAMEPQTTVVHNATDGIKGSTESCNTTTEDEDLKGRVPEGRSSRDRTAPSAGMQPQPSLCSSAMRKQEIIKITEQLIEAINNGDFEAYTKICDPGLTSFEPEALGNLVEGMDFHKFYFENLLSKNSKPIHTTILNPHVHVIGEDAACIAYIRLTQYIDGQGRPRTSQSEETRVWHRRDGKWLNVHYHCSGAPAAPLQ

CN[C@@H]1C[C@H]2O[C@@](C)([C@@H]1OC)n1c3ccccc3c3c4c(c5c6ccccc6n2c5c31)C(=O)NC4 [Staurosporin, reference compound] was tested, and the “% DMSO” value (10 nM, 10 uM ATP) was 21%, the “% inhibition” value (10 nM, 10 uM ATP) was 79.0% and the “CamKIIγ activity, mean” value (10 nM, 10 uM ATP) was 0.915 units. For the same compound, the “CamKIIγ activity, units (duplicates)” value (10 nM, 10 uM ATP) was 0.93 units and 0.9 units, the “% inhibition” value (10 nM, 10 uM ATP, listed as staurosporin) was 79% and the “% DMSO” value (10 nM, 50 uM ATP) was 59%. The “% inhibition” value (10 nM, 50 uM ATP) was 41%, the “CamKIIγ activity, mean” value (10 nM, 50 uM ATP) was 7.285 units and the “% DMSO” value (100 nM, 10 uM ATP) was 5%. For the same compound, the “% inhibition” value (100 nM, 10 uM ATP) was 95.4%, the “CamKIIγ activity, mean” value (100 nM, 10 uM ATP) was 0.2 units and the “CamKIIγ activity, units (duplicates)” value (100 nM, 10 uM ATP) was 0.25 units and 0.15 units. The “% inhibition” value (100 nM, 10 uM ATP, listed as staurosporin) was 95%, the “% DMSO” value (100 nM, 50 uM ATP) was 5% and the “% inhibition” value (100 nM, 50 uM ATP) was 95%. The “CamKIIγ activity, mean” value (100 nM, 50 uM ATP) was 0.635 units, the “CamKIIγ activity, units (duplicates)” value (100 nM, 50 uM ATP) was 0.67 units and 0.6 units and the “CAMKII gamma kinase activity inhibition (in words)” value (10 or 50 uM ATP) was “effective as a positive control”.

— patent US20240307372A1, “COMPOSITIONS AND METHODS TO IMPROVE BENEFIT OF SUBOPTIMALLY ADMINISTERED THERAPEUCTICS FOR THE TREATMENT OF BENIGN AND NEOPLASTIC DISEASES, INFECTIONS, INFLAMMATORY, METABOLIC AND IMMUNOLOGIAL DISEASES” (priority 2023, published 2024)
